Source: ChEMBL document CHEMBL1126121, “Non-prostanoid thromboxane A2 receptor antagonists with a dibenzoxepin ring system. 1” (J Med Chem, 1992)

Test system: Thromboxane-A synthase (Bos taurus)
Test: Inhibitory effect against thromboxane A2 synthase from bovine platelets at 10 uM concentration

COc1ccccc1C(=O)NCCSC1c2ccccc2COc2ccc(C(=O)O)cc21 (stereo unspecified)
inhibition: 37%
